# Legend:
# [1] = system: carboxypeptidase Y and B; experiment: Metabolic stability in carboxypeptidase mix (ESMS, selected ion monitoring); settings: stability: decrease in SIM signal after 24 h in degradation solution; carboxypeptidase Y and B in 50 mM ammoniumacetate pH 4.5, 37°C
# [2] = system: trypsin, chymotrypsin and elastase; experiment: Metabolic stability in pancreatic enzyme mix (ESMS, selected ion monitoring); settings: stability: decrease in SIM signal after 24 h in degradation solution, chymotrypsin and elastase in 100 mM ammoniumbicarbonate pH 8.0, 37°C
smiles,measurement,setting,value
CSCC[C@H](NC(=O)[C@H](CC(C)C)NC(=O)[C@H](Cc1c[nH]c2ccccc12)NC(=O)[C@H](CCC(N)=O)NC(=O)[C@@H](NC(=O)[C@H](Cc1ccccc1)NC(=O)[C@H](CC(=O)O)NC(=O)[C@H](CCC(N)=O)NC(=O)[C@H](C)NC(=O)[C@H](CCCN=C(N)N)NC(=O)[C@H](CCCN=C(N)N)NC(=O)[C@H](CO)NC(=O)[C@H](CC(=O)O)NC(=O)[C@H](CC(C)C)NC(=O)[C@H](Cc1ccc(O)cc1)NC(=O)[C@H](CCCCN)NC(=O)[C@H](CO)NC(=O)[C@H](Cc1ccc(O)cc1)NC(=O)[C@H](CC(=O)O)NC(=O)[C@H](CO)NC(=O)[C@@H](NC(=O)[C@H](Cc1ccccc1)NC(=O)[C@@H](NC(=O)CNC(=O)[C@H](CCC(N)=O)NC(=O)[C@H](CO)NC(=O)[C@@H](N)Cc1c[nH]cn1)[C@@H](C)O)[C@@H](C)O)C(C)C)C(=O)N[C@@H](CC(N)=O)C(=O)N[C@H](C(=O)O)[C@@H](C)O [Glucagon],Carboxy-peptidase mix,[1],- (Unstable (more than 20% decrease in SIM signal after 24 h in degradation solution))
same,Pan. enzyme mix,[2],- (Unstable (more than 20% decrease in SIM signal after 24 h in degradation solution))

# — patent EP1506969B1, “Compounds with growth hormone releasing properties” (Helsinn Therapeutics (U.S.), Inc., priority 1998, dated 2010)
